In patent US8871706B2, “Method for inhibiting inflammation and pre-inflammatory cytokine/chemokine expression using a ghrelin analogue” (Ipsen Pharma S.A.S., priority 2007, dated 2014):
pKi: −log10 of the molar value.

Protein sequences, listed by entry. Tags and fused reporters are not part of them.
UniProt Q92847, whole entry: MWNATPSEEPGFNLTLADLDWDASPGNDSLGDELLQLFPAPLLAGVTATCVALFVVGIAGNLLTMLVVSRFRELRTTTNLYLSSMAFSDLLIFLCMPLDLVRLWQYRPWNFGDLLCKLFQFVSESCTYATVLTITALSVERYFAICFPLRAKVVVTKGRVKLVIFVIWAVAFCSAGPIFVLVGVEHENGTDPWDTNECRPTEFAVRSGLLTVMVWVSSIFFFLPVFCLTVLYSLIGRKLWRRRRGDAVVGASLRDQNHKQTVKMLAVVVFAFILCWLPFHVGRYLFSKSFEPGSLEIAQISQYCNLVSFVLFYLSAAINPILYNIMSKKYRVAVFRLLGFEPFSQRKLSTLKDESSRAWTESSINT

Biological target: T1, human recombinant GHS receptor (Homo sapiens, UniProt Q92847)
T1 construct: The full length human GHS-R was subcloned into the mammalian expression vector pcDNA 3.1; expressed in transfected cells; membranes prepared by homogenization
Assay: GHS-Receptor Binding Assay
Conditions: (125I)ghrelin, membranes of CHO-K1 cells expressing hGHS-R, 60 minute incubation at 4° C.

H-Gly-Ser-Ser-Phe-Leu-Ser-Pro-Glu-His-Gln-Arg-Val-Gln-Gln-Arg-Lys-Glu-Ser-Lys-Lys-Pro-Pro-Ala-Lys-Leu-Gln-Pro-Arg-NH2 [hGhrelin(1-28)-NH2, reference compound]
pKi: 7.62
